# AlphaSeq binding of Ab-14 light chain variants to a spike HR2 peptide

Data: MIT Lincoln Laboratory AlphaSeq set, Engelhart et al. 2022, doi:10.1038/s41597-022-01779-4, as distributed in FLAb.

Binding partner: SARS-CoV-2 spike HR2 peptide, sequence PDVDLGDISGINAS.

Ab-14 is the parent antibody, in scFv form: VH, then the linker GGGGSGGGGSGGGGS, then VL. The heavy chain is unchanged in all variants.
VH: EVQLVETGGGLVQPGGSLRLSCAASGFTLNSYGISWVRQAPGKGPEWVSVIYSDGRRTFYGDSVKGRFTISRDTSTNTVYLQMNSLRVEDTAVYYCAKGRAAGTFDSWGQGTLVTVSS
VL: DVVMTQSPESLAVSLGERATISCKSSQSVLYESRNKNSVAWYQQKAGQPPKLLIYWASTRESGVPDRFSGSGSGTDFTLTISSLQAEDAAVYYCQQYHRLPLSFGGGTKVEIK

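The starting antibody came from a phage panning campaign against this peptide. Variants in AAYL50 differ from the parent at up to three CDR positions; double and triple changes were sampled at random. In AlphaSeq, yeast of one mating type display the scFv and yeast of the other type display the target. Pairs that bind mate more often; barcode pairs of the diploids are counted by sequencing. Read counts were normalised to the haploid input and turned into Kd by a linear fit to BCL2-family pairs of known affinity, for each replicate. There are three technical replicates.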

Variants are written as CDR1, CDR2 and CDR3 of the light chain (limits as in the source). Parent: KSSQSVLYESRNKNSVA, WASTRES, QQYHRLPLS.
The read-out is the apparent dissociation constant on a log10 scale (nM): the lower, the stronger.
"nd" means that the variant was in the library but no mating with the target was seen in that replicate; the authors take this as a sign of poor binding, and no number exists.

DSSQSVLYESRNKNSVA / WASTSES / QQYHRLPLS: nd, nd, nd (controls 0 of 9).
KSSQSVLYEHRNKNSVA / WPYTRES / QQYHRLPLS: nd, nd, 4.51 (controls 1 of 9).
KSSQSVLYESRNKNTVA / WASVRES / QQYHDLPLS: 3.26, nd, nd (controls 0 of 9).
KASQSVLYESRNKQSLA / WASTRES / QQYHRLPLS: 1.56, 1.55, 1.68 (controls 0 of 9).
KSSQSVLYESRNKNSVA / WASTRES / QQIHRLPEF: nd, 3.80, 3.76 (controls 2 of 9).
SSSQSVLYESRNKNSVA / WASTRES / QEYHRHPLS: 3.37, 2.96, 3.21 (controls 7 of 9).
KSSQSVLYESRNGNSVA / WAYTREL / QQYHRLPLS: 1.40, 1.55, 1.70 (controls 1 of 9).
KSEQSVLYESRNKNSAA / WASTRES / QQYHRLPLS: nd, 3.78, nd (controls 0 of 9).
CSSQSVLYESRNKNSVA / IASTRES / QQYHRLPLS: 2.95, 2.47, 2.70 (controls 1 of 9).
KYSQSVLYESRNKNSVA / WASTRES / QQYHRLPLS: 0.85, 0.97, 0.91 (controls 0 of 9).
KPSQSVLYESRNKNSVA / WASTRES / QQYHSPPLS: nd, nd, 3.80 (controls 0 of 9).
KSSQSVLYESRNKNSVA / WWSTGVS / QQYHRLPLS: nd, nd, 4.08 (controls 1 of 9).
KSSQSPLYESRNKVSVA / WASTRFS / QQYHRLPLS: nd, nd, nd (controls 0 of 9).
KSSQSVLYESRNKLFVA / WASLRES / QQYHRLPLS: nd, nd, 4.04 (controls 2 of 9).
KSSQGVLYESRTKNSVA / WGSTRES / QQYHRLPLS: 0.69, 0.89, 0.88 (controls 6 of 9).
KSSQSVLYESRNKNSIA / WASTRES / QSYHRRPLS: 4.60, nd, 6.23 (controls 3 of 9).
KSSQSHLYESRNKNSVA / WASTREH / QQYHRLALS: 0.94, 1.23, 1.00 (controls 1 of 9).
RSSQSVLRESRNKNSKA / WASTRES / QQYHRLPLS: 3.44, nd, 5.72 (controls 5 of 9).
KISQSVLYESRNKNSVA / WASTRNS / QQYHRLPLS: -0.56, -0.08, -0.37 (controls 2 of 9).
KSSQSWLYESENKNLVA / WASTRES / QQYHRLPLS: 3.87, 2.70, 3.22 (controls 0 of 9).
KSSQSVLYEWRNKNNVA / WASTRES / QQAHRLPLS: 1.46, 1.61, 1.41 (controls 4 of 9).
KSSQPVLYESRNKNSVA / WAATRES / QQYHRLPLH: 2.74, 2.10, nd (controls 0 of 9).
KSSQSVLYESRNKNSVA / KASTRES / QQYHRLPLS: 0.70, 0.99, 0.85 (controls 1 of 9).
KSSLSVLYESRNKNSVA / WASTRES / GQYHRLPLS: 4.69, nd, nd (controls 0 of 9).
KSSQSNLYGSRNKNSVA / WASTREN / QQYHRLPLS: 0.43, 0.73, 0.82 (controls 0 of 9).
KWSQSVLYESRSKNSVA / WSSTRES / QQYHRLPLS: 1.90, 1.98, 2.17 (controls 2 of 9).
KSSQSVLYESRNKGSVA / WASTREI / QQYHRLSLS: 2.42, 2.68, 3.64 (controls 1 of 9).
KSSQSVLYESINKNSVA / IASTRES / QQYHRLPLS: nd, nd, nd (controls 0 of 9).
KSSQSVLYESRNKNSVA / WSSTRES / GQYHRLPLY: nd, nd, nd (controls 0 of 9).
KCSQSVLYDSRNKNSVA / WASTRES / QQYHRQPLS: 1.58, 1.58, 1.69 (controls 5 of 9).
KSSQSVLYESRNKRSVA / WASTRES / QQYHRWPLS: 3.76, nd, nd (controls 1 of 9).
KSSQSVLYESRTKNSFA / WASTRES / QQYHRLPLN: 5.79, nd, nd (controls 5 of 9).

A selection of 3 entries from above:

CDR-L1	CDR-L2	CDR-L3	log10 Kd (nM) by replicate	control signals
DSSQSVLYESRNKNSVA	WASTSES	QQYHRLPLS	nd, nd, nd	0 of 9
KCSQSVLYDSRNKNSVA	WASTRES	QQYHRQPLS	1.58, 1.58, 1.69	5 of 9
KWSQSVLYESRSKNSVA	WSSTRES	QQYHRLPLS	1.90, 1.98, 2.17	2 of 9

Empty control strains, which show no peptide, gave a signal in 18% of pairings with library AAYL50; the median was 4.19 and 95% of these signals were weaker than 2.99. No background was subtracted. The control count says in how many pairings with the empty strains this scFv gave a signal.
In this assay the parent's reference entry averaged 0.65; its copy inside this library read 1.68.